Molecules are shown by their SMILES.

The chains behind the UniProt entries cited, without tags or fusion partners.
UniProt Q9NWZ3, whole entry, species assumed: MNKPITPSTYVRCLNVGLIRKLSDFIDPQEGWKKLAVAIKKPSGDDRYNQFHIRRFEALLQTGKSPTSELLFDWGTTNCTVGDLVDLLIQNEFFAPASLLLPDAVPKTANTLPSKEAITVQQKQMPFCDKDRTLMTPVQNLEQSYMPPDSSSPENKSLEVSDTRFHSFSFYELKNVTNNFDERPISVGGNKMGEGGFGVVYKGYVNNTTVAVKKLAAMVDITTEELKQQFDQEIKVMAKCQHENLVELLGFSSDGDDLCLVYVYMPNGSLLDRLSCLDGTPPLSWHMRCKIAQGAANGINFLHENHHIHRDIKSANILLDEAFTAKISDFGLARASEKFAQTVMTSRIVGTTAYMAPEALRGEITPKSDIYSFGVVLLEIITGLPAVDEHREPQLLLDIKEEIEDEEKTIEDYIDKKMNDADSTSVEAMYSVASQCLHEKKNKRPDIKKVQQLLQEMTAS

For one test, the target named is IRAK4 (Homo sapiens (Human), UniProt Q9NWZ3). Briefly: IRAK-4 biochemical kinase assay, AlphaScreen format. The method, then:
The biochemical assay is in a AlphaScreen format. The kinase reaction is based on the IRAK-4 phosphorylation of a biotin labeled peptide. The phosphopeptide is incubated with anti-phosphothreonine antibody as well as streptavidin- and protein A-coated beads. Binding of the protein-A coated beads to the antibody and the streptavidin beads to the peptide, leads to an energy transfer from one bead to the other, ultimately producing a luminescent/fluorescent signal.

In the next test the test system is A549 cells. Description: Cell-based assay, IL-6 ELISA quantification in IL-1 beta stimulated A549 cells. Conditions: Homo sapiens, A549, read-out: Celluar Data EC50 (uM). The method, then: The cell-based assays is based on IL-6 ELISA quantification. Briefly, A549 cells are cultured in DMEM with 10% FBS medium. When cells reach 80% confluence they are trypsin treated and seeded in 96-well plate at 2.5×10^4 cells/well. Then, 20 ul of compound serial dilutions (starting at 10 uM, 10 points) are added to the cell plate; incubate for 1 hour at 37 C and stimulated with 2 ng/ml human IL-1 beta 37 C overnight. The next day 100 ul of cell supernatant per well are analyzed on a Human IL-6 Quantikine ELISA kit from R&D Systems.
(In general: In an ELISA, binding on a coated surface is turned into a signal by an enzyme label.)

As a reminder, the IC50 is the point on the concentration scale where inhibition reaches its midpoint. Higher therefore signals lower potency. In the case of `CN(C)C(=O)c1ccc2c(c1)NC(=O)c1csc(n1)-c1ccnc(c1)NCCCCCO2` [Compound 20], at IRAK4, the IC50 is < 100 nM. The term EC50 denotes the concentration at which the effect is half-maximal. On to `O=C1Nc2c[nH]nc2C(=O)NCCOCCOc2cc(ccn2)-c2nc1cs2` [Example 107], for which, in the test on A549 cells, the EC50 was > 10 µM. Moreover, the concentration for half-maximal inhibition (IC50) against IRAK4 is < 100 nM.

Values taken from US9617282B2, “Macrocyclic compounds as IRAK4 inhibitors for the treatment of inflammatory diseases” (BIOGEN MA INC., priority 2013, dated 2017).
